The assay deals with MHC, class II, gene products (on Raji cells) (human). The experiment in a line: cell-based or functional assay.

Values joined by “and” are separate entries in the source; they are usually repeats but may differ in a detail not shown here. Identical values can stand only once.

Take “human CD4 (from UniProt P01730 26-458) (receptor)”: the inhibition of rosettes between Raji cells and CD4-transiently transfected COS-7 cells by cyclic peptide CNSNQIC (SEQ ID NO:45) at 200 uM is 57% and 63% and 51%; the inhibition of rosetting of Cr-51 labelled Raji cells to stably T4-pMV7-transfected COS-1 cells by CNSNQIC (SEQ ID NO:45) at 200 uM is more than 75%.

Source of the values: patent US7345020B2, “Mimetics of CD4 that inhibit immune response” (Thomas Jefferson University, priority 1995, dated 2008).
